We go through one molecule from patent US7829303B1 (ELAN PHARMACEUTICALS, dated 2010).

Protein sequences, listed by entry. Tags and fused reporters are not part of them. Residues count along the entry.
UniProt P56817, 46-501 limits assumed: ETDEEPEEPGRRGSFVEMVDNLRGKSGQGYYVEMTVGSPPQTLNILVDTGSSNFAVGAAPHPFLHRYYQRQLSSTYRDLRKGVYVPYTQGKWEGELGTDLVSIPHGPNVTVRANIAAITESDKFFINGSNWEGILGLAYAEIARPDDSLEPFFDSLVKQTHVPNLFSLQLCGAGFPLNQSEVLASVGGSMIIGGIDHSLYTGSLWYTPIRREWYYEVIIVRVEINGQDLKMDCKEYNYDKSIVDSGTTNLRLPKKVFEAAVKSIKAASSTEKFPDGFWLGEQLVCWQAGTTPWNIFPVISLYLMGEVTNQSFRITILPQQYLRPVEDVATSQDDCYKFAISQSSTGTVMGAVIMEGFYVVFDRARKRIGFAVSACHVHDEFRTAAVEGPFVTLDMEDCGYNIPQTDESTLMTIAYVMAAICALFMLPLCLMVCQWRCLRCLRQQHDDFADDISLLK

By IC50 is commonly meant the concentration that gives 50% inhibition. Low values mean inhibition by little substance, high ones a need for much substance.

The target in this experiment is BACE (Homo sapiens, UniProt P56817). Put plainly: Inhibition of BACE (IC50 quoted for the inhibitors used in crystal soaking experiments). As to conditions: BACE inhibitor potency stated in text; assay method not described.

Turning to `COc1cccc(CNC[C@@H](O)[C@H](Cc2ccccc2)NC(=O)c2cc(C)cc(-c3ccsc3)c2)c1`, the IC50 amounted to 8.8 µM.
